Test results reported in patent US7893077B2, “Bisaryl-sulfonamides” (Amgen Inc., priority 2004, dated 2011).

Chains of the proteins cited; added tags and fusions are not shown.
UniProt P37231, whole entry: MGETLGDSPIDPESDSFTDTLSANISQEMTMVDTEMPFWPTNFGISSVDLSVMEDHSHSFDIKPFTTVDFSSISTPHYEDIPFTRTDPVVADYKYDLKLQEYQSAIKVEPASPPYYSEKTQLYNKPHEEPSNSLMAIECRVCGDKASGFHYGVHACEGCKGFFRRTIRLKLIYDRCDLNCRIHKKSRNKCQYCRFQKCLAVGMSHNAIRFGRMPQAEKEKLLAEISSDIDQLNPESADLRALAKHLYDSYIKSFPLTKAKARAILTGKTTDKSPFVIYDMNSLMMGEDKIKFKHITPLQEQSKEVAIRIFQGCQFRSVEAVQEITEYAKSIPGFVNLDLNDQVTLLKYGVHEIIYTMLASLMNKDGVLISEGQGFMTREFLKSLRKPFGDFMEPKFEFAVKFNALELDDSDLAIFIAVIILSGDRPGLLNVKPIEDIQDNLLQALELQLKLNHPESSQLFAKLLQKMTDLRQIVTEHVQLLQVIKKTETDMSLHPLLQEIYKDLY

Biological target: PPARγ (Homo sapiens, UniProt P37231)
Assay: PPARγ ligand binding assay utilizing [3H]-BRL 49653 as the radioligand (filtration)
Conditions: read-out: PPARγ Binding IC50 Filtration; concentration required to reduce by 50% the specific binding of [3H]-BRL 49653
Text: The compounds of the present invention can be evaluated for modulation of the PPARγ receptor using assays such as those described in Jiang, et al., Nature 391:82-86 (1998), Ricote, et al., Nature 391:79-82 (1998) and Lehmann, et al., J. Biol. Chem. 270(12): 12953-12956 (1995). Alternatively, the compounds can be evaluated for their ability to displace radiolabeled BRL 49653 from a PPARγ-GST fusion protein as follows:
PPARγ-GST fusion protein (prepared according to standard procedures), [^3H]-BRL 49653 having 50 Ci/mmol specific activity, Polyfiltronics Unifilter 350 filtration plate and glutathione-Sepharose® beads (from Pharmacia: washed twice with 10× binding buffer in which BSA and DTI can be left out).
Binding buffer (10 mM Tris-HCl, pH 8.0, 50 mM KCl, 10 mM DTT, 0.02% BSA and 0.0 1% NP-40) is added in 80-μL amounts to the wells of the filtration plate. The test compound is then added in 10 μL of DMSO. The PPARγ-GST fusion protein and radiolabeled BRL compound are premixed in binding buffer containing 10 mM DTT and added in 10-μL amounts to the wells of the plate to provide final concentrations of 1 µg/well of PPARγ-GST fusion protein and 10 nM [^3H]-BRL 49653 compound. The plate is incubated for 15 min. Glutathione-agarose bead is added in 50 μL of binding buffer, and the plate is vigorously shaken for one hour. The plate is washed four times with 200 μL/well of binding buffer (without BSA and DTT). The bottom of the plate is sealed and 200 μL/well of scintillation cocktail is added. The top of the plate is then sealed and the radioactivity is determined.
IC50 values are defined as the concentration of test compounds required to reduce by 50% the specific binding of [^3H]-BRL 49653 and are represented by (+)<30 μM; (++)<10 μM; (+++)<1 μM.

| Compound | IC50 [nM] |
| --- | --- |
| CC(=O)c1cc(NS(=O)(=O)c2ccc(C)cc2)cc(Cl)c1Oc1ccc(S(=O)(=O)N2CCOCC2)cc1 | < 10000 |
| CCN(CC)S(=O)(=O)c1ccc(Oc2c(Cl)cc(NS(=O)(=O)c3ccc(C(F)(F)F)cc3Cl)cc2C(C)(F)F)cc1 | < 1000 |
| CC(=O)c1cc(NS(=O)(=O)c2c(Cl)cc(C(F)(F)F)cc2Cl)cc(Cl)c1Oc1ccc(S(=O)(=O)N2CCOCC2)cc1 | < 10000 |
| O=S(=O)(Nc1cc(Cl)c(Sc2ccc(S(=O)(=O)N3CCNCC3)cc2)c(Cl)c1)c1ccc(C(F)(F)F)cc1Cl | < 1000 |
| CC(=O)c1cc(NS(=O)(=O)c2ccccc2Cl)cc(Cl)c1Oc1ccc(S(=O)(=O)N2CCOCC2)cc1 | < 10000 |
| CCN(CC)S(=O)(=O)c1ccc(Oc2ccc(NS(=O)(=O)c3ccc(Cl)cc3Cl)cc2C(=O)C2CC2)cc1 | < 1000 |
| Cc1cc(S(=O)(=O)Nc2ccc(Oc3ccc(S(=O)(=O)N4CCCCC4)c(C)c3)c(C(=O)N(C)C(C)C)c2)c(Cl)cc1Cl | < 1000 |
| CCC(=O)c1cc(NS(=O)(=O)c2cc(C)c(Cl)cc2Cl)ccc1Oc1ccc(S(=O)(=O)N2CCCCC2)cc1 | < 1000 |
| CC(=O)c1cc(NS(=O)(=O)c2cc(C)c(Cl)cc2C)cc(Cl)c1Oc1ccc(S(=O)(=O)N2CCOCC2)cc1 | < 1000 |
| CCN(CC)S(=O)(=O)c1ccc(Oc2c(C)cc(NS(=O)(=O)c3cc(F)cc(Cl)c3C)cc2Cl)cc1 | < 1000 |
| CCN(CC)S(=O)(=O)c1ccc(Oc2c(Cl)cc(NS(=O)(=O)c3ccc(C(F)(F)F)cc3Cl)cc2Cl)c(C)c1 | < 1000 |
| CC1CC(C)CN(S(=O)(=O)c2ccc(Oc3c(Cl)cc(NS(=O)(=O)c4ccc(C(F)(F)F)cc4Cl)cc3Cl)cc2)C1 (centres unmarked) | < 1000 |
| O=C(c1cc(NS(=O)(=O)c2ccc(C(F)(F)F)cc2Cl)ccc1Oc1ccc(S(=O)(=O)N2CCCCC2)cc1)C1CCCCC1 | < 1000 |
| CC(=O)c1cc(NS(=O)(=O)c2ccc(F)c(F)c2)cc(Cl)c1Oc1ccc(S(=O)(=O)N2CCOCC2)cc1 | < 10000 |
| CC(F)(F)c1cc(NS(=O)(=O)c2ccc(C(F)(F)F)cc2Cl)cc(Cl)c1Oc1ccc(S(=O)(=O)N2CCOCC2)cc1 | < 1000 |
| Cc1cc(Oc2ccc(NS(=O)(=O)c3ccc(OC(F)(F)F)cc3)cc2C(=O)N(C)C(C)C)ccc1S(=O)(=O)N1CCCC1 | < 10000 |
| CC(C)CC(=O)c1cc(NS(=O)(=O)c2ccc(Cl)cc2Cl)nnc1Sc1ccc(S(=O)(=O)N2CCCCC2)cc1 | < 10000 |
| Cc1cc(Oc2ccc(NS(=O)(=O)c3ccc(Cl)cc3Cl)cc2C(=O)N(C)C(C)C)ccc1S(=O)(=O)N1CCCC1 | < 10000 |
| CCN(CC)S(=O)(=O)c1ccc(Oc2c(Cl)cc(NS(=O)(=O)c3ccc(C(F)(F)F)cc3Cl)cc2C(C)=O)cc1 | < 1000 |
| CC(=O)c1cc(NS(=O)(=O)c2cc(F)c(F)cc2F)cc(Cl)c1Oc1ccc(S(=O)(=O)N2CCOCC2)cc1 | < 1000 |
| O=S(=O)(Nc1cc(Cl)c(Oc2ccc(S(=O)(=O)C3CCCC3)cc2)c(Cl)c1)c1ccc(C(F)(F)F)cc1Cl | < 1000 |
| Cc1cc(S(=O)(=O)Nc2ccc(Oc3ccc(S(=O)(=O)N4CCCC4)c(C)c3)c(C(=O)N(C)C(C)C)c2)c(Cl)cc1Cl | < 1000 |

| Compound | IC50 [nM] |
| --- | --- |
| CCOC(=O)c1cc(NS(=O)(=O)c2ccc(Cl)cc2Cl)ccc1Oc1ccc(S(=O)(=O)N2CCOCC2)c(C)c1 | < 30000 |
| CC(=O)c1cc(NS(=O)(=O)c2ccc(F)cc2)cc(Cl)c1Oc1ccc(S(=O)(=O)N2CCOCC2)cc1 | < 10000 |
| CC(C)NC(=O)c1cc(NS(=O)(=O)c2ccc(C(F)(F)F)cc2Cl)ccc1Oc1ccc(S(=O)(=O)N2CCCCC2)cc1 | < 1000 |
| CC(=O)c1cc(NS(=O)(=O)c2ccc(F)c(F)c2F)cc(Cl)c1Oc1ccc(S(=O)(=O)N2CCOCC2)cc1 | < 10000 |
| CCNC(=O)CS(=O)(=O)c1ccc(Sc2c(Cl)cc(NS(=O)(=O)c3ccc(C(F)(F)F)cc3Cl)cc2Cl)cc1 | < 1000 |
| CC(=O)c1cc(NS(=O)(=O)c2c(C)cccc2Cl)cc(Cl)c1Oc1ccc(S(=O)(=O)N2CCOCC2)cc1 | < 10000 |
| CC(=O)c1cc(NS(=O)(=O)c2c(F)cccc2F)cc(Cl)c1Oc1ccc(S(=O)(=O)N2CCOCC2)cc1 | < 10000 |
| CC(C)OC(=O)c1cc(NS(=O)(=O)c2ccc(C(F)(F)F)cc2Cl)cc(Cl)c1Oc1ccc(S(=O)(=O)N2CCOCC2)cc1 | < 1000 |
| CON(C)C(=O)c1cc(NS(=O)(=O)c2ccc(Cl)cc2Cl)ccc1Oc1ccc(S(=O)(=O)N2CCCCC2)cc1 | < 1000 |
| CCOC(=O)c1nc(-c2cc(NS(=O)(=O)c3ccc(Cl)cc3Cl)ccc2Oc2ccc(S(=O)(=O)N3CCOCC3)cc2)cs1 | < 10000 |
| CCN(CC)S(=O)(=O)c1ccc(Oc2c(C)cc(NS(=O)(=O)c3ccc(C(F)(F)F)cc3Cl)cc2C(C)=O)cc1C | < 1000 |
| CCN(CC)S(=O)(=O)c1ccc(Oc2ccc(NS(=O)(=O)c3ccc(Cl)cc3)cc2C)cc1 | < 30000 |
| O=C(O)CCCS(=O)(=O)c1ccc(Sc2c(Cl)cc(NS(=O)(=O)c3ccc(C(F)(F)F)cc3Cl)cc2Cl)cc1 | < 1000 |
| CCOC(=O)c1cc(NS(=O)(=O)c2ccc(C(F)(F)F)cc2Cl)ccc1Oc1ccc(S(=O)(=O)N2CCCCC2)c(C)c1 | < 1000 |
| CC(=O)c1cc(NS(=O)(=O)c2ccc(Cl)cc2)cc(Cl)c1Oc1ccc(S(=O)(=O)N2CCOCC2)cc1 | < 1000 |
| CC(=O)c1cc(NS(=O)(=O)c2cccc(Cl)c2)cc(Cl)c1Oc1ccc(S(=O)(=O)N2CCOCC2)cc1 | < 10000 |
| CCN(CC1CCCN1)S(=O)(=O)c1ccc(Sc2c(Cl)cc(NS(=O)(=O)c3ccc(C(F)(F)F)cc3Cl)cc2Cl)cc1 (centres unmarked) | < 1000 |
| Cc1cc(Oc2ccc(NS(=O)(=O)c3cc(F)c(Cl)cc3F)cc2C(=O)N(C)C(C)C)ccc1S(=O)(=O)N1CCCC1 | < 10000 |
| CCC(C)NC(=O)c1cc(NS(=O)(=O)c2ccc(C(F)(F)F)cc2Cl)ccc1Oc1ccc(S(=O)(=O)N2CCCCC2)c(C)c1 (centres unmarked) | < 1000 |
| CCN(CC)S(=O)(=O)c1ccc(Oc2ccc(NS(=O)(=O)c3ccc(OC(F)(F)F)cc3)cc2C)cc1 | < 30000 |
| CCN(CC)S(=O)(=O)c1ccc(Oc2ccc(NS(=O)(=O)c3ccc(C(F)(F)F)cc3Cl)cc2C)cc1 | < 10000 |
| Cc1cc(Oc2c(Cl)cc(NS(=O)(=O)c3ccc(C(F)(F)F)cc3Cl)cc2Cl)ccc1S(=O)(=O)N1CCC(C)CC1 | < 1000 |

| Compound | IC50 [nM] |
| --- | --- |
| COc1ccc(S(=O)(=O)Nc2cc(Cl)c(Oc3ccc(S(=O)(=O)N4CCOCC4)cc3)c(C(C)=O)c2)cc1 | < 10000 |
| CC(=O)c1cc(NS(=O)(=O)c2cc(Cl)ccc2Cl)cc(Cl)c1Oc1ccc(S(=O)(=O)N2CCOCC2)cc1 | < 1000 |
| CCN(CC)S(=O)(=O)c1ccc(Oc2ccc(NS(=O)(=O)c3cc(C)c(Cl)cc3Cl)cc2Cl)cc1 | < 1000 |
| O=S(=O)(Nc1cc(Cl)c(Sc2ccc(S(=O)(=O)N3CCOCC3)cc2)c(Cl)c1)c1ccc(C(F)(F)F)cc1Cl | < 1000 |
| CC(=O)c1cc(NS(=O)(=O)c2ccc(C(F)(F)F)cc2Cl)ccc1Oc1ccc(S(=O)(=O)N2CCOCC2)cc1 | < 1000 |
| Cc1cc(S(=O)(=O)Nc2cc(Cl)c(Oc3ccc(S(=O)(=O)N4CCCCC4)cc3)c(Cl)c2)c(Cl)cc1Cl | < 1000 |
| O=S(=O)(Nc1cc(Cl)c(Oc2ccc(S(=O)(=O)C3CCOCC3)cc2)c(Cl)c1)c1ccc(C(F)(F)F)cc1Cl | < 1000 |
| CC(=O)c1cc(NS(=O)(=O)c2cc(C(F)(F)F)cc(C(F)(F)F)c2)cc(Cl)c1Oc1ccc(S(=O)(=O)N2CCOCC2)cc1 | < 10000 |
| CCC(C)NC(=O)c1cc(NS(=O)(=O)c2cc(C)c(Cl)cc2Cl)ccc1Oc1ccc(S(=O)(=O)N2CCCCC2)c(C)c1 (centres unmarked) | < 1000 |
| CC(F)(F)c1cc(NS(=O)(=O)c2ccc(C(F)(F)F)cc2Cl)cc(Cl)c1Oc1ccc(S(=O)(=O)N2CCCCC2)cc1 | < 1000 |
| CCCCc1nc(NS(=O)(=O)c2ccc(Cl)cc2Cl)ncc1Sc1ccc([N+](=O)[O-])cc1 | < 10000 |
| CS(=O)(=O)c1ccc(Sc2ccc(NS(=O)(=O)c3ccc(C(F)(F)F)cc3Cl)cc2Cl)cc1 | < 1000 |
| CCN(CC)S(=O)(=O)c1ccc(Oc2c(Cl)cc(NS(=O)(=O)c3cc(F)cc(Cl)c3C)cc2Cl)cc1 | < 1000 |
| CC(=O)c1cc(NS(=O)(=O)c2ccc(Cl)c(Cl)c2Cl)cc(Cl)c1Oc1ccc(S(=O)(=O)N2CCOCC2)cc1 | < 1000 |
| O=S(=O)(Nc1ccc(Oc2ccc(S(=O)(=O)N3CCOCC3)cc2)c(Cl)c1)c1ccc(Cl)cc1Cl | < 10000 |
| CCN(CC)S(=O)(=O)c1ccc(Oc2c(Cl)cc(NS(=O)(=O)c3cc(C)c(Cl)cc3Cl)cc2C(C)=O)cc1C | < 1000 |
| CCN(CC)S(=O)(=O)c1ccc(Oc2ccc(NS(=O)(=O)c3ccc(Cl)cc3Cl)cc2C)cc1 | < 10000 |
| CC1CN(S(=O)(=O)c2ccc(Oc3c(Cl)cc(NS(=O)(=O)c4ccc(C(F)(F)F)cc4Cl)cc3Cl)cc2)CC(C)O1 (centres unmarked) | < 1000 |
| CC(=O)c1cc(NS(=O)(=O)c2cccc(C(F)(F)F)c2)cc(Cl)c1Oc1ccc(S(=O)(=O)N2CCOCC2)cc1 | < 10000 |
| CC(=O)c1cc(NS(=O)(=O)c2cc(C)c(Cl)cc2Cl)ccc1Oc1ccc(S(=O)(=O)N2CCCCC2)cc1 | < 1000 |
| CC(=O)c1cc(NS(=O)(=O)c2cc(C)c(Cl)cc2Cl)ccc1Oc1ccc(S(=O)(=O)N2CCCCC2)c(C)c1 | < 1000 |
